Values quoted from earlier work as cited in patent US20150328277A1 (Teva Pharmaceutical Industries, Ltd., priority 2012, published 2015).

L-glutamic acid polymer with L-alanine, L-lysine, L-tyrosine, acetate (salt) [glatiramer acetate]
patients reporting Immediate Post-Injection Reaction (IPIR) (clinical trials, 13% on placebo): 31%
proportion of patients reporting injection-site reactions at least once (controlled studies, placebo injections 37%): 70%
